Source: US20230257351A1, “SUBSTITUTED N-PHENYLACETAMIDES HAVING P2X4 RECEPTOR ANTAGONISTIC ACTIVITY” (Bayer Aktiengesellschaft, priority 2020, published 2023)

Each molecule was assayed against T1, human P2X4 (Homo sapiens, UniProt Q99571) (assay: Human P2X4 HEK Cell FLIPR Assay). Settings: HEK293 stably expressing human P2X4; agonist Bz-ATP 3 μM (EC80); read-out: Human P2X4 HEK Cells (FLIPR Assay) avg IC50.
T1 construct: expressed in transfected cells
T1 sequence (Q99571 1-388): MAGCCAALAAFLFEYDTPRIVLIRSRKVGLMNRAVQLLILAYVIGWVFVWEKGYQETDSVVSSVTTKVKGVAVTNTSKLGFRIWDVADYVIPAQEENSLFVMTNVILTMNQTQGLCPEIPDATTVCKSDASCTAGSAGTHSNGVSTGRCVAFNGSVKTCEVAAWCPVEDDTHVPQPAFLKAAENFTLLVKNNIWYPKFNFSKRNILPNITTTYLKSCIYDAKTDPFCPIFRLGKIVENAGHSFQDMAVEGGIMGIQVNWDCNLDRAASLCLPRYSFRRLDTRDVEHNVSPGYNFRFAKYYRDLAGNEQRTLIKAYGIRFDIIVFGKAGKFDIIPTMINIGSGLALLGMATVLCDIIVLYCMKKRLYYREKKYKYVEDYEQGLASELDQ
Format: cell-based
Description: Compounds were tested on a HEK293 cell line stably expressing human P2X4. Cells were cultured on poly-D-lysine-coated 384-well plates at a density of 15,000 cells/well and incubated overnight at 37° C., 5% CO2. P2X4 function was assessed by measuring intracellular calcium fluxes caused by Benzoylbenzoyl-ATP (Bz-ATP) using the calcium-chelating dye Fluo8-AM (Molecular Devices) with the Fluorescent Imaging Plate Reader Tetra (FLIPR^Tetra; Molecular Devices CA). On the day of the assay, the medium was removed and the cells were incubated for 30 min at 37° C. and 5% CO2 in 30 μl of dye buffer (Hank's balanced salt solution, 10 mM HEPES, 1.8 mM CaCl2, 1 mM MgCl2, 2 mM probenecid, 5 mM D-glucose monohydrate, 5 μM Fluo8-AM, pH=7.4). Compounds diluted in probenecid buffer (Hank's balanced salt solution, 10 mM HEPES, 1.8 mM CaCl2, 1 mM MgCl2, 2 mM probenecid, 5 mM D-glucose monohydrate, pH=7.4) at ten concentrations ranging from 25 μM to 1 nM (final concentration) were dispensed and incubated for 30 min at room temperature. The agonist, Bz-ATP (Tocris Bio-Techne GmbH, DE), was added at a final concentration of 3 μM, representing the EC80 routinely determined. The final assay volume was 50 μl and final DMSO concentration was 0.5%.
The fluorescence intensity reflecting intracellular calcium changes was recorded before and after Bz-ATP addition, at an excitation and emission wavelengths of 470-495 nm and 515-575 nm respectively.
The compounds were tested in triplicates and fluorescence intensity raw data normalized to the agonist control and fitted to the four-parameter logistic equation:
Y=Bottom+(Top−Bottom)/(1+10^((Log IC50−X)*HillSlope))
The efficacy of saturating concentrations of the agonist BzATP (3 μM) was set as maximal response (100% Emax) and the bottom defined by the signal achieved with 0.5% DMSO.
Assay plate acceptance was based on the signal window (S/B)[…] and the reference compound pIC50 within ±3σ the mean of historic pIC50 of the compound. Failure to meet two of the three criteria determined exclusion of the plate's results.

SMILES | IC50
CC(=O)N(c1ccc(C#N)c(C(F)(F)F)c1)c1cc(NC(=O)Cc2cccc(F)c2Cl)ccn1 [Example 11, N-{4-[2-(2-chloro-3-fluorophenyl)acetamido]pyridin-2-yl}-N-[4-cyano-3-(trifluoromethyl)phenyl]acetamide] | 977 nM
CC(=O)N(c1ccc(C#N)c(C(F)(F)F)c1)c1cc(NC(=O)Cc2c(Cl)cccc2Cl)ccn1 [Example 12, N-[4-cyano-3-(trifluoromethyl)phenyl]-N-{4-[2-(2,6-dichlorophenyl)acetamido]pyridin-2-yl}acetamide] | 973 nM
CC(=O)N(c1ccc(C#N)c(C(F)(F)F)c1)c1cc(NC(=O)Cc2ccccc2Cl)ccn1 [Example 10, N-{4-[2-(2-chlorophenyl)acetamido]pyridin-2-yl}-N-[4-cyano-3-(trifluoromethyl)phenyl]acetamide] | 875 nM
